Measurements taken from publication PMC6424229, “^68Ga-FAPI PET/CT: Biodistribution and Preliminary Dosimetry Estimate of 2 DOTA-Containing FAP-Targeting Agents in Patients with Various Cancers” (Journal of Nuclear Medicine, 2019).

Columns and labels:
tumor lesions = settings: in vivo
[1] = in vivo
[2] = in vivo; cited from earlier work

Substance: ^18F-FDG
- Tumor uptake, average SUVmax (tumor lesions): 7.41
- Background uptake in brain, average SUVmax [1]: 11.01
- Background uptake in liver, average SUVmax [1]: 2.77
- Background uptake in oral/pharyngeal mucosa, average SUVmax ([1]; po): 4.88
- Effective dose [2]: 2 mSv/100 MBq
